The target in the assay is 11CBy receptors (Homo sapiens, UniProt Q99705). Description: Radioligand binding assay, [125I]-Melanin Concentrating Hormone competition on membranes from HEK293 cells stably expressing 11CBy receptors. To be noted: [125I]-MCH 0.22 nM, 45 min at 37° C., pH 7.4, pKi calculated from IC50.

By UniProt entry, the sequences of proteins in these tests, tags left out.
UniProt Q99705, whole entry: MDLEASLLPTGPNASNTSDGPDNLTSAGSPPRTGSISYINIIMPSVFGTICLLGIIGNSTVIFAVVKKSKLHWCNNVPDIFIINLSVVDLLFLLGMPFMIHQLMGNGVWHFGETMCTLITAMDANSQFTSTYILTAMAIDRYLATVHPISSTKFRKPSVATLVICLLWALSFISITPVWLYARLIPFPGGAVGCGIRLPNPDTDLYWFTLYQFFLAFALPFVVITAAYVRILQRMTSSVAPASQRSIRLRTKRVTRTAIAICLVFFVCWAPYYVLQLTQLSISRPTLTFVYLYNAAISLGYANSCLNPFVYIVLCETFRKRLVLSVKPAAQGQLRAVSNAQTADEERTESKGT

On to `CC(C)N(CCOc1ccc(NC(=O)c2ccc(C3CCCCC3)cc2)c(F)c1)C(C)C`, for which the pKi range is 7.5-7.8.

These data come from patent US20040063686A1, “Carboxamide compounds and their use as antagonists of a human 11cby receptor” (priority 2000, published 2004).
